From patent US8959984B2, “Proteome-wide quantification of small molecule binding to cellular target proteins” (priority 2007, dated 2015)

Chains of the proteins cited; added tags and fusions are not shown. Lines headed by an entry give the natural chain unless they say otherwise; changes in a name come on top.
UniProt Q5VT25: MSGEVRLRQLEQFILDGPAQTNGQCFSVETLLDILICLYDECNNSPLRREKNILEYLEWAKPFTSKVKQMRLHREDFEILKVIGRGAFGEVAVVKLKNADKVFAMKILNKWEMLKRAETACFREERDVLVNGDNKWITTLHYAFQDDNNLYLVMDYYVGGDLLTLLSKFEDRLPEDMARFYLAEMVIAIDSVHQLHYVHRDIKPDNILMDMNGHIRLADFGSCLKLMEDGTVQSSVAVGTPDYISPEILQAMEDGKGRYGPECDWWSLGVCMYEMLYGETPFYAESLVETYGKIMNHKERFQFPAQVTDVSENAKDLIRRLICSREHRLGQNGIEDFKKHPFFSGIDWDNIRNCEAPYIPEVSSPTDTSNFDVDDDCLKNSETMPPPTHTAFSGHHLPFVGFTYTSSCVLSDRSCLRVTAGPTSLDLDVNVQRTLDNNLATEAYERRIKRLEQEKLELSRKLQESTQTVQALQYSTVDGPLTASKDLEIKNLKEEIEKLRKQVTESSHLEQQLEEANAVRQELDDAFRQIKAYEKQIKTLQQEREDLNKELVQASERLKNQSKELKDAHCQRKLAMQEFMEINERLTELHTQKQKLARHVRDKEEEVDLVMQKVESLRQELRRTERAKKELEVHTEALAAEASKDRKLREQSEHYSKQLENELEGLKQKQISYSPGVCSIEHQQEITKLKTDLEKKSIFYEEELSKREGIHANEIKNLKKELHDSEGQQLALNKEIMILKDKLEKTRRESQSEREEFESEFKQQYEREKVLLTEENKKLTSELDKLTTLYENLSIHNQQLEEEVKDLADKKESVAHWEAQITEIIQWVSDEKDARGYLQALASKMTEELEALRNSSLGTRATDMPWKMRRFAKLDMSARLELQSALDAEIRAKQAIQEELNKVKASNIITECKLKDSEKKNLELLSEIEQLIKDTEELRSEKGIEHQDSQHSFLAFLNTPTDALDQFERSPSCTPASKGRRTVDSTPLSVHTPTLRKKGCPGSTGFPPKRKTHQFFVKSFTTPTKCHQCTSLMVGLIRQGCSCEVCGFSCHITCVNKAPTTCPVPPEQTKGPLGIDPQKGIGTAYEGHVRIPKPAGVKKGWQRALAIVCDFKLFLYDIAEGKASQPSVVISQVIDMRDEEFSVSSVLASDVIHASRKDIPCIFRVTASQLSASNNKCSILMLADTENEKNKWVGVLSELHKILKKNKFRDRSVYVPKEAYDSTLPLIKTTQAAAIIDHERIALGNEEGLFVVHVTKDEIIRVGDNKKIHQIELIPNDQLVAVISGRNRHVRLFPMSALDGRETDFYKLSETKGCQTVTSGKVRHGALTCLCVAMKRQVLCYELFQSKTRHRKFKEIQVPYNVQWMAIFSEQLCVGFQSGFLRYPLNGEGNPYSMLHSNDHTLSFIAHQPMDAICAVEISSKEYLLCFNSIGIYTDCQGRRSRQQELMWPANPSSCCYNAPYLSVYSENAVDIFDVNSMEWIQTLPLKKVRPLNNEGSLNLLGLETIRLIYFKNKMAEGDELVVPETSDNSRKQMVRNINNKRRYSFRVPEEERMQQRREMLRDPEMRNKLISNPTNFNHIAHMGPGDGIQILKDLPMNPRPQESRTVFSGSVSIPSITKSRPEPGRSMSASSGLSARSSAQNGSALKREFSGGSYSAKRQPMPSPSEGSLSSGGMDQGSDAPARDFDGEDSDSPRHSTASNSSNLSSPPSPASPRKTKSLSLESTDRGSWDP
UniProt Q05397, whole entry: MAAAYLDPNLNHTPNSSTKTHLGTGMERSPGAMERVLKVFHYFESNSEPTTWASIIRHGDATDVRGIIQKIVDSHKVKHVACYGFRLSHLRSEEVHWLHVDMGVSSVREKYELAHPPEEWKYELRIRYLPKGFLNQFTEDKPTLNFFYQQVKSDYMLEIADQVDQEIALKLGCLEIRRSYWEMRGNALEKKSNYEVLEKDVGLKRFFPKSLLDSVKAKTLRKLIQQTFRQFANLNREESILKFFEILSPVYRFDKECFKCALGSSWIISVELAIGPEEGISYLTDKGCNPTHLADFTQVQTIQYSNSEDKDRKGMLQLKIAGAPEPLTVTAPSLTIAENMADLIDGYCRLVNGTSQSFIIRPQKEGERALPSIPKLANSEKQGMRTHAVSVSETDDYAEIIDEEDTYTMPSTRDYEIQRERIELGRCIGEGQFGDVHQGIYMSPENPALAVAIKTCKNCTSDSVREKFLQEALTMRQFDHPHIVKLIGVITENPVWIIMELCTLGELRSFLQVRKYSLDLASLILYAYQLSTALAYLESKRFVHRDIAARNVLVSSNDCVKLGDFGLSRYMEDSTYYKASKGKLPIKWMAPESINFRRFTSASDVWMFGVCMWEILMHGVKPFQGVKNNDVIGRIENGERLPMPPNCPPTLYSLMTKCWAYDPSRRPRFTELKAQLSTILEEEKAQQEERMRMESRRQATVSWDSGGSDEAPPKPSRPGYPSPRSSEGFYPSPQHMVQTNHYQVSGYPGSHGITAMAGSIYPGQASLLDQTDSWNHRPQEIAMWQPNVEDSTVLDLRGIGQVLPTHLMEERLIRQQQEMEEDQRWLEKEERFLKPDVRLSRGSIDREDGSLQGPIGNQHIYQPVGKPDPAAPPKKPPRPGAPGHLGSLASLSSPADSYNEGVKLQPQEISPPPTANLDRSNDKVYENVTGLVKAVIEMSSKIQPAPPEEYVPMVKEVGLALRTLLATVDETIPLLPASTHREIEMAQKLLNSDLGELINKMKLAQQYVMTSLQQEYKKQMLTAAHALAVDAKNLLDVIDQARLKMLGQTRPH
UniProt O60307: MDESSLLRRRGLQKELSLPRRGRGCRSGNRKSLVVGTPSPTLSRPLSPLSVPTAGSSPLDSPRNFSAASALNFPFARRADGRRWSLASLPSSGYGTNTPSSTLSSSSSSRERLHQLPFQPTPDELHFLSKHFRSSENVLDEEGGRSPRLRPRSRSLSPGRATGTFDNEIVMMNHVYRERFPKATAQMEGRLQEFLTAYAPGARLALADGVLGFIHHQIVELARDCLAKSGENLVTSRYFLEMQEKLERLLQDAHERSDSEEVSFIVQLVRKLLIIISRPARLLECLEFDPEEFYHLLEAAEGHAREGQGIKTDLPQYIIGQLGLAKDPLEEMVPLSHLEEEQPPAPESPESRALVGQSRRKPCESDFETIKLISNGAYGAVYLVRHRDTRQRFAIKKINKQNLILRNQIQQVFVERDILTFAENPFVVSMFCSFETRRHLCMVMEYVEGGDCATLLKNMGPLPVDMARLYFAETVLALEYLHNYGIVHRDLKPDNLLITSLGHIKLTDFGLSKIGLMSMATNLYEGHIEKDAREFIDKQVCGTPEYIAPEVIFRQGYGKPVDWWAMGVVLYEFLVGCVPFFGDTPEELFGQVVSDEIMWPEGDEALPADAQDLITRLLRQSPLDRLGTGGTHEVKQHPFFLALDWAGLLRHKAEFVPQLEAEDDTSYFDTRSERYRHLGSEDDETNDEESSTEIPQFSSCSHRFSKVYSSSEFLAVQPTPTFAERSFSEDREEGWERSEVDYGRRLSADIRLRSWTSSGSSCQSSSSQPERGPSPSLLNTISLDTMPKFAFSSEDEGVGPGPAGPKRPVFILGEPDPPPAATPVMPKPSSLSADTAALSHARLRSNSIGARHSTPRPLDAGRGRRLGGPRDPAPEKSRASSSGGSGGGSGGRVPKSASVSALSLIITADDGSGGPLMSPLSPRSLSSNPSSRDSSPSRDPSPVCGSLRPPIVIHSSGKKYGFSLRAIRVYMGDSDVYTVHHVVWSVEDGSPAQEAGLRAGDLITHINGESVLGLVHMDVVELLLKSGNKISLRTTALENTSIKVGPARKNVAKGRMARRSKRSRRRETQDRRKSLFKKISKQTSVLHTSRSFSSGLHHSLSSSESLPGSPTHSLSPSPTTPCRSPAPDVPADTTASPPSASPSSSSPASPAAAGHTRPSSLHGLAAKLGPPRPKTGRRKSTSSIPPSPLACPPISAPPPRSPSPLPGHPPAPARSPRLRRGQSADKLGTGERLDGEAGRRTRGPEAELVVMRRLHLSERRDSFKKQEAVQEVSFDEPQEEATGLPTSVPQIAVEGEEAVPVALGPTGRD
UniProt P07947, whole entry: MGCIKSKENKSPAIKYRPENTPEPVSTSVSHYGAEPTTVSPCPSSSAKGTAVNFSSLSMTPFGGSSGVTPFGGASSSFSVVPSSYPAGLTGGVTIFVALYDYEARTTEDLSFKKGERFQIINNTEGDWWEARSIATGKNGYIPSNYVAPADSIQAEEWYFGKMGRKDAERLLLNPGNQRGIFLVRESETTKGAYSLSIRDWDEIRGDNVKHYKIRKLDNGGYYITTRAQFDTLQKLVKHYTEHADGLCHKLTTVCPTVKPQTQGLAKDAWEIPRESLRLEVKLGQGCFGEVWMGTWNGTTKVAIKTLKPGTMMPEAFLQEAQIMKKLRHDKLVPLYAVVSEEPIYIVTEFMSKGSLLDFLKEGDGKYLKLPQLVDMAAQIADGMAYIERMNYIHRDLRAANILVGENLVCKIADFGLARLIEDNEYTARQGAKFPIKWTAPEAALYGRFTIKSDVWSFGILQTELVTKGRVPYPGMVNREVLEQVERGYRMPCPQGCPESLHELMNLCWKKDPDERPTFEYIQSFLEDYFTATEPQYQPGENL
UniProt Q00535, whole entry: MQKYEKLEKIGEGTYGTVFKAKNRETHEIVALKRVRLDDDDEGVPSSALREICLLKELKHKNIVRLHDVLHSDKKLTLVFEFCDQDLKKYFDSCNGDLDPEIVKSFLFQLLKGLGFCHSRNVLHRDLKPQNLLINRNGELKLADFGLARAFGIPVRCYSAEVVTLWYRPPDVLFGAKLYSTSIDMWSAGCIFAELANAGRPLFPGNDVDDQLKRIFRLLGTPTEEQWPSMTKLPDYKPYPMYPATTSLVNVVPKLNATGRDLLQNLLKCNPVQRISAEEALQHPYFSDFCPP

Experiments:
Experiment in all cases: Ki determination for immobilized VI16742: two consecutive incubations, control beads, ligand concentration and incubation time controls (Tables 7, 8)
Type in all cases: binding
[1] = target: cellular target proteins in HeLa cell lysate (Homo sapiens, UniProt Q5VT25); settings: Ki (VI16742), MRCKa (CDC42BPA) IPI00640957
[2] = target: cellular target proteins in HeLa cell lysate (Homo sapiens, UniProt Q05397); settings: Ki (VI16742), FAK IPI00413961
[3] = target: cellular target proteins in HeLa cell lysate (Homo sapiens, UniProt O60307); settings: Ki (VI16742), MAST3 IPI00028932
[4] = target: cellular target proteins in HeLa cell lysate (Homo sapiens, UniProt P07947); settings: Ki (VI16742), YES (YES1) IPI00013981
[5] = target: T1, cellular target proteins in HeLa cell lysate (Homo sapiens, UniProt P51956); settings: Ki (VI16742), NEK3 IPI00465101
T1 sequence (P51956 1-506): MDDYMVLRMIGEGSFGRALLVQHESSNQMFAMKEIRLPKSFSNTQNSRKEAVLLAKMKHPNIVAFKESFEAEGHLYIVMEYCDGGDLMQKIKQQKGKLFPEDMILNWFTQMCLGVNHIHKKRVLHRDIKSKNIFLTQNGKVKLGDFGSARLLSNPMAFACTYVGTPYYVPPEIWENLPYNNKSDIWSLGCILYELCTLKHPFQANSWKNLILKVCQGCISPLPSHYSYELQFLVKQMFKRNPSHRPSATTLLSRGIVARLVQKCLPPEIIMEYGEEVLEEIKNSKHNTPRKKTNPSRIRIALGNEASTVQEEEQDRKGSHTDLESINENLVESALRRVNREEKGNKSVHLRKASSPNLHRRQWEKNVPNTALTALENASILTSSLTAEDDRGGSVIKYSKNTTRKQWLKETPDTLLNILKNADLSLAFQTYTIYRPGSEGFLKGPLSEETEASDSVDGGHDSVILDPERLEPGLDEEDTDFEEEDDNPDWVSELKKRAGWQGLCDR

[6] = target: T2, cellular target proteins in HeLa cell lysate (Homo sapiens, UniProt P33981)
T2 sequence (P33981 1-857): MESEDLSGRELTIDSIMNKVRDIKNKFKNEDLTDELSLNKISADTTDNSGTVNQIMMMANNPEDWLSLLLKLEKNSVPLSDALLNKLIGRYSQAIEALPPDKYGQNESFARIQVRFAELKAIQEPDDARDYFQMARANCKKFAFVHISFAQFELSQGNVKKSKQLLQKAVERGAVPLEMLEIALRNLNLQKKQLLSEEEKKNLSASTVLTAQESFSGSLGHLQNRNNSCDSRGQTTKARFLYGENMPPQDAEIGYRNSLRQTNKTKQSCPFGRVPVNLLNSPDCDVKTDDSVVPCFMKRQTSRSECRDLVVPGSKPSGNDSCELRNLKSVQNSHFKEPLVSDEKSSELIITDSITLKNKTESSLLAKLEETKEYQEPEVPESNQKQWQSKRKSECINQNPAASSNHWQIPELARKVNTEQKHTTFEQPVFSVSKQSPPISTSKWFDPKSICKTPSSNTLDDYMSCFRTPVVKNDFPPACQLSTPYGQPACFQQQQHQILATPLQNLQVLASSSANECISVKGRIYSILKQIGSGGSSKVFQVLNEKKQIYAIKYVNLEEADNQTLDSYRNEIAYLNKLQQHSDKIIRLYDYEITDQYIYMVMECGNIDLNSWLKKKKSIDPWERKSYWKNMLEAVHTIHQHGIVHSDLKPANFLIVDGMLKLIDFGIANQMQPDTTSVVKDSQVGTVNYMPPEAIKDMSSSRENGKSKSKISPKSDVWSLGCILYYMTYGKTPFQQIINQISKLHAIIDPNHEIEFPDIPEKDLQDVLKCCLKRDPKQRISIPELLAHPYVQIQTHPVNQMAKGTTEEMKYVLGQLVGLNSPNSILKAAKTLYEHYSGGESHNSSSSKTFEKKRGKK

[7] = target: cellular target proteins in HeLa cell lysate (Homo sapiens, UniProt Q00535); settings: Ki (VI16742), CDK5 IPI00023530

`CC(C)n1c(=O)ccc2cnc(Nc3ccc(OCCN)cc3)nc21` [V16742] showed a Ki [1] of 17.3 µM, a Ki [2] of 21 µM and a Ki [3] of 38.3 µM. The Ki [4] was 34.2 µM, the Ki [5] was 14.3 µM and the Ki [6] was 18.4 µM. It also gave a Ki [7] of 3.75 µM.
